The values below are quoted from earlier work in patent publication US9433616B2, “Methods and compositions for decreasing saliva production” (priority 2005, dated 2016).

The data set relates to muscarinic receptors in the muscles of the eye. The conditions noted are these: in vivo; cited from earlier work.

On to `CCN(Cc1ccncc1)C(=O)C(CO)c1ccccc1` (centres unmarked) [tropicamide, N-ethyl-N-(4-pyridylmethyl) tropamide], for which the recovery from mydriasis is 3 to 8 h and the “time to mydriasis after instillation” value is 15 to 20 min.
